Experimental data from US6458758B1, “Compositions and methods utilizing nitroxides in combination with biocompatible macromolecules” (Synzyme Technologies, Inc., priority 1993, dated 2002).

How the values were obtained:
[1] = Activation of TOPS by nitroxide-labelled proteins (ESR); assay type: biochemical; details: 50 mM TOPS, sodium phosphate buffer pH 7.8, 2 min
From the text: FIGS. 18B, 18C, and 18D are ESR spectra showing activation of TOPS by three different nitroxide-labelled human proteins. FIGS. 18B and 18D show TOPS activation by albumin labelled with different species of nitroxide. FIG. 18C is nitroxide-labelled hemoglobin-based oxygen carrier.
As noted herein, the donor/acceptor relationship between two nitroxide containing species provides the ability for sustained nitroxide protection in vivo. The interaction of PNA and TPL as described with several of the embodiments is only one example of additional combinations provided by the invention. […] Thus, as referred to elsewhere herein, the multiple component embodiments may be formulated with different nitroxides or nitroxide-based compounds with different free-electron stabilities.

[2] = test system: leukocyte rolling and adhesion to endothelial cells; assay: Cigarette smoke induced leukocyte rolling, adhesion and aggregate formation, dorsal skinfold chamber; assay type: in vivo, Syrian Golden hamsters
From the text: The interactions of leukocytes with endothelial cells and platelets are an indicator of the microcirculatory response to several adverse physiological conditions, ranging from localized and systemic ischemia/reperfusion injury, rejection of organ grafts, and the response to the organism to various oxidizing novae. See also Lehr et al., PNAS, […]. The mediator role of reactive oxygen species has been documented in many in vitro and in vivo models and, as a consequence, antioxidants and radical scavengers have been applied to counteract leukocyte activation, aggregation, and adhesion to endothelium and the subsequent microcirculatory dysfunction.

[3] = test system: rats; assay: Transient MCA suture occlusion (2 h) and 22 h reperfusion in rats; assay type: in vivo, rat
Protocol: As a model of prophylactic therapy in the surgical/perioperative stroke setting, PNA was administered to mice both before MCA occlusion and after reperfusion. Because albumin alone may provide modest protection against cerebral ischemia, PNA was tested with both HSA and saline as controls.
Rats were subjected to 2 hours of suture occlusion of the MCA, followed by 22 hours of reperfusion. Drug or saline was administered IV in a total dose of 1% of body weight (v/w), divided as follows: ½ the total dose was given 5 minutes before MCA occlusion; ¼ of the total dose was given five minutes before the suture was removed to allow reperfusion of the MCA; and the final ¼ of the total dose was given 2 hours after reperfusion. Brain sections were stained with TTC.

[4] = total dose 1% of body weight iv, divided

Row | Substance | activation of TOPS (ESR peak intensity) [1] | aggregate formation ([2]; 15 MINUTES) | arteriolar rolling ([2]; 15 MINUTES) | arteriolar sticking ([2]; 15 MINUTES) | venular rolling ([2]; 15 MINUTES) | venular sticking ([2]; 15 MINUTES) | aggregate formation ([2]; 60 MINUTES) | arteriolar rolling ([2]; 60 MINUTES) | arteriolar sticking ([2]; 60 MINUTES) | venular rolling ([2]; 60 MINUTES) | venular sticking ([2]; 60 MINUTES) | aggregate formation ([2]; BASELINE) | arteriolar rolling ([2]; BASELINE) | arteriolar sticking ([2]; BASELINE) | venular rolling ([2]; BASELINE) | venular sticking ([2]; BASELINE) | leukocyte activation ([2]; cigarette smoke, compared with saline-treated controls) | protective effect as compared to that of PNA ([3]; rat, in vivo) | % infarction [3, 4] | mean infarct volume [3, 4]
1 | B3T labelled albumin | shown to activate TOPS | – | – | – | – | – | – | – | – | – | – | – | – | – | – | – | – | – | – | –
2 | Human serum albumin: human serum albumin, control protein solution | – | 0.7 ± 0.7 /30 sec | 0.1 ± 0.2 /mm | 0.0 ± 0.0 /mm^2 | 5.5 ± 0.9% | 0.0 ± 0.0 /mm^2 | 1.3 ± 1.1 /30 sec | 0.1 ± 0.2 /mm | 0.0 ± 0.0 /mm^2 | 6.9 ± 2.1% | 0.0 ± 0.0 /mm^2 | 0.6 ± 0.7 /30 sec | 0.0 /mm | 0.0 /mm^2 | 4.9 ± 0.2% | 0.0 ± 0.0 /mm^2 | inhibited activation | approximately 50% | approximately 11±4% | 81±26 mm^3
